# From patent US20040077080A1, “Compositions and methods for induction of proteins involved in xenobiotic metabolism” (priority 2000, published 2004)
# System: MDR1 P-glycoprotein mRNA
# Assay: Northern blot of MDR1 P-glycoprotein expression (Example VI)
# Conditions: rifampicin 10 micromoles per liter, 48 hours
smiles,measurement,value
CO[C@H]1/C=C/O[C@@]2(C)Oc3c(C)c(O)c4c(O)c(c(/C=N/N5CCN(C)CC5)c(O)c4c3C2=O)NC(=O)/C(C)=C\C=C\[C@H](C)[C@H](O)[C@@H](C)[C@@H](O)[C@@H](C)[C@H](OC(C)=O)[C@@H]1C [rifampicin],MDR1 P-glycoprotein expression in Caco-PXR stable cells (in words),MDR1 P-glycoprotein activation
